# Measurements as given in PubChem BioAssay (NCI).
# “And” between values parts separate entries of the source, which are not always exact repeats. Equal values may be shown once. The list shows a part of the results, in another mix than the full data.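 Treatment: one concentration, 48 hours, 96-well format. Scoring: percent growth, with anything below 10 considered active.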 The source made the active and inactive calls.
# Test system: MDA-MB-468 breast
# Test: NCI-60 one-dose screen, 48 h (100 = growth as untreated, 0 = no growth, -100 = all killed)
# Conditions: 10 µM unless noted
row,SMILES,growth
1,O=[As](O)(c1cccs1)c1cccs1,inactive: 95.8%
2,O=C(C(=O)c1ccc([N+](=O)[O-])cc1[N+](=O)[O-])c1ccc([N+](=O)[O-])cc1[N+](=O)[O-],inactive: 109%
3,CCN(CCCl)CC1OC(O)C(O)C1O (stereo not given),inactive: 103%
4,O=P(O)(NCCCO)N(CCCl)CCCl,inactive: 97%
5,CC(Cl)CN(CC(C)Cl)C(=O)OCC(N)C(=O)O (stereo not given),inactive: 104% and inactive: 93.6%
6,O=[N+]([O-])c1ccc(-c2cc([N+](=O)[O-])c(O)c([N+](=O)[O-])c2)cc1,inactive: 102% and inactive: 105%
7,COC(=O)C1(C)COP(=O)(N2CCCCCC2)OC1 (stereo not given),inactive: 115%
8,CCc1cc(O)c([N+](=O)[O-])c(C)c1[N+](=O)[O-],inactive: 114%
9,O=Cc1sc(N(CCCl)CCCl)nc1Cl,inactive: 109%
10,O=[As](O)(c1ccccc1)c1ccc(O)cc1,inactive: 110%
11,CC1(CCC2(C)N=C(NN=C(CCl)CCl)SP2(=O)Nc2ncccn2)N=C(NN=C(CCl)CCl)SP1(=O)Nc1ncccn1 (stereo not given),inactive: 95.7% [100 µM]
12,CCN(CCCl)C1c2ccccc2-c2ccccc21,inactive: 103%
13,CN(CCCl)CC1OC(O)C(O)C(O)C1O (stereo not given),inactive: 101%
14,Cc1cccc(Nc2c([N+](=O)[O-])cc([N+](=O)[O-])cc2[N+](=O)[O-])c1,inactive: 71.8%
15,O=[N+]([O-])c1ccc(SSc2ccc([N+](=O)[O-])cc2[N+](=O)[O-])c([N+](=O)[O-])c1,inactive: 109%
